From patent US20220317138A1, “METHODS FOR DETERMINING THE CONCENTRATION OF A CARBAPENEM ANTIBIOTIC IN A BIOLOGICAL SAMPLE” (priority 2019, published 2022)
Some compounds may have been tested in ways that are not shown here.

Sequences of proteins named here, by UniProt entry; tags and fusion partners are left off. Residues count along the entry.
UniProt Q6XEC0, 23-265 limits assumed: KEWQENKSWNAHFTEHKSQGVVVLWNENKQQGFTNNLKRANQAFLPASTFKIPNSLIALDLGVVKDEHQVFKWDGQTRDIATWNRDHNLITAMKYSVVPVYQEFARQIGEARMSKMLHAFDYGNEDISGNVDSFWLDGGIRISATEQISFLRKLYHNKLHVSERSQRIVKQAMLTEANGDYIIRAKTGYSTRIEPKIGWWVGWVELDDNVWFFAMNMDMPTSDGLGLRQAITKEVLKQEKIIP

Biological target: beta-lactamase class D OXA-48 (Klebsiella pneumoniae, UniProt Q6XEC0)
Conditions: second drug alone in ultrafiltrated serum at 10 times recommended blood concentration, result expressed as meropenem concentration, theoretically zero

CCC(=O)N(c1ccccc1)C1(COC)CCN(CCc2cccs2)CC1
Average [meropenem] (average of three replicates): 0.08 mg/L | [meropenem] (mg/L) Replicates 1 (replicate 1): 0.00 mg/L | [meropenem] (mg/L) Replicates 2 (replicate 2): 0.12 mg/L | [meropenem] (mg/L) Replicates 3 (replicate 3): 0.12 mg/L
